Consider 87 compounds from PubChem BioAssay AID2521 (Sanford-Burnham Center for Chemical Genomics, 2010).

Sequences of proteins named here, by UniProt entry; tags and fusion partners are left off.
UniProt P35414, whole entry: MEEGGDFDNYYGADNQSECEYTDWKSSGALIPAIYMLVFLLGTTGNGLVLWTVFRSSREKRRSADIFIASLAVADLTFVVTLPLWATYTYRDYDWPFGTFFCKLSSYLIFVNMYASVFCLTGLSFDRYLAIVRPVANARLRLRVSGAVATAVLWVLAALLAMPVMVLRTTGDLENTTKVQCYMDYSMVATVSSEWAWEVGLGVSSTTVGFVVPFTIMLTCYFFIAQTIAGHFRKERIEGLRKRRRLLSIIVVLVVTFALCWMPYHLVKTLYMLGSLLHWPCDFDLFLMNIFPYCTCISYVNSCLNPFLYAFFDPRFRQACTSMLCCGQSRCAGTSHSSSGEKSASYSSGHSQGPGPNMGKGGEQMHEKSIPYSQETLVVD

Only a part is listed here, and it is no random draw. Some salts or complexes appear as unconnected parts, following the source record. Calls of active or inactive are those of the source.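 How the source made its calls: active means inhibition above about 40% at 20 µM (limit read from the data); inactive means the rest.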

This assay concerns the target Apelin receptor (Homo sapiens) (UniProt P35414). Put plainly: blockade of apelin-induced APJ beta-arrestin recruitment – CHO-K1 cells, beta-arrestin complementation, luminescence, primary screen (AID 2521).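 Further: cells challenged with 10 nM apelin-13 agonist together with compound; plate controls were apelin-13 plus DMSO wells for no effect and DMSO wells lacking apelin-13 for full effect.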 To be noted: at 20 µM, stronger effect = higher value. In general terms: Arrestin recruitment assays detect the binding of arrestin to an activated receptor.
On to `O=[N+]([O-])c1cc([N+](=O)[O-])c(Nc2cccnc2)c([N+](=O)[O-])c1`, for which the inhibition was inactive: -0.368%.
Next, `Cc1cccc(C)c1OP(C)(N)=O` (configuration not stated): inactive: -3.53%.
Take `CC(C)(C)c1ccc(OP(C)(=O)Nc2ccc(SC(F)(F)F)cc2)cc1` (configuration not stated): the inhibition is inactive: -18.1%.
Next, `CCOC(=O)c1ccc(NP(C)(=O)Oc2ccccc2)cc1` (configuration not stated): inactive: 7.97%; `Cc1ccc(NP(C)(=O)Oc2ccccc2)c(C)c1` (configuration not stated): inactive: 16.3%; `COc1ccccc1OP(C)(=O)Nc1ccc(C)cc1` (configuration not stated): inactive: 5%.
As for `COc1ccc(OP(C)(=O)Nc2cccc(F)c2)cc1` (configuration not stated), the inhibition was inactive: 8.35%.
The value for `COc1ccccc1OP(C)(=O)Nc1cc(Cl)ccc1C` (configuration not stated) was inactive: -1.66%.
Next, `Cc1cc(C)cc(OP(C)(N)=O)c1` (configuration not stated): inactive: 9.31%; `CCN(CC)CCCOC(=O)C(O)(c1ccccc1)c1ccccc1`: inactive: -1.18%.
On to `CP(=O)(Oc1ccccc1)OC(c1ccccc1)C(F)(F)F` (configuration not stated), for which the inhibition was inactive: -1.91%.
Next, `Cc1cccc(C)c1OP(C)(=O)Nc1ccc(SC(F)(F)F)cc1` (configuration not stated): inactive: 0.803%.
The value for `CP(=O)(Nc1ccc(SC(F)(F)F)cc1)Oc1ccc(Cl)cc1` (configuration not stated) was inactive: -2.11%.
Next, `Cc1cc(C)cc(OP(C)(=O)Nc2ccc(SC(F)(F)F)cc2)c1` (configuration not stated): inactive: -10.3%; `CCc1ccc(OP(C)(=O)N2CCN(c3ccc([N+](=O)[O-])cc3)CC2)cc1` (configuration not stated): inactive: 11%.
As for `CP(=O)(NC(=O)Nc1ccccc1)Oc1ccccc1` (configuration not stated), the inhibition was inactive: -17%.
For `CCOP(C)(=S)SCC(=O)NC(C)C(=O)O` (configuration not stated), the inhibition was inactive: 9.48%.
As for `CCOC(=O)c1ccc(NP(C)(=O)Oc2ccc(OC)cc2)cc1` (configuration not stated), the inhibition was inactive: -5.55%.
The value for `O=[N+]([O-])c1cc([N+](=O)[O-])c(O)c([N+](=O)[O-])c1.c1ccc(Oc2ccncc2)cc1` was inactive: 21.7%; that for `CP(=O)(Nc1ccccn1)Oc1ccc(Cl)cc1` (configuration not stated) was inactive: -0.209%; that for `CP(=S)(Nn1cnnc1)Oc1ccccc1` (configuration not stated) was inactive: 13.5%.
As for `COc1ccccc1OP(C)(=O)Nc1ccccc1` (configuration not stated), the inhibition was inactive: -7.6%.
As for `CP(=O)(Nc1ccccc1Br)Oc1ccccc1` (configuration not stated), the inhibition was inactive: 8.28%.
Consider `CCOC(=O)C(CC)C1=NC(C)(C)Cc2ccccc21.O=[N+]([O-])c1cc([N+](=O)[O-])c(O)c([N+](=O)[O-])c1` (configuration not stated), for which the inhibition was inactive: 10.9%.
The value for `O=[N+]([O-])c1cc([N+](=O)[O-])c(Nc2nnnn2CCO)c([N+](=O)[O-])c1` was inactive: 36.2%; that for `CC1=C2N=C(C=C3N=C(C(C)=C4[N-][C@@](C)([C@@H]5N=C1[C@](C)(CCC(=O)NC[C@@H](C)OP(=O)([O-])O[C@H]1[C@@H](O)[C@@H](n6cnc7cc(C)c(C)cc76)O[C@@H]1CO)[C@H]5CC(N)=O)[C@@](C)(CC(N)=O)[C@@H]4CCC(N)=O)[C@@](C)(CC(N)=O)[C@@H]3CCC(N)=O)C(C)(C)[C@@H]2CCC(N)=O.[C-]#N.[Co+3]` was inactive: 38.2%; that for `COc1ccccc1OP(C)(=O)Nc1c(C)cccc1C` (configuration not stated) was inactive: -13.6%.
The value for `CN1CCCCC1COC(=O)C1(O)c2ccccc2CCc2ccccc21` (configuration not stated) was inactive: 20.6%.
Next, `CP(=O)(Nc1ccc(SC(F)(F)F)cc1)Oc1ccccc1` (configuration not stated): inactive: -9.31%.
Regarding `CCCOc1ccc(NP(C)(=O)Oc2ccc(Cl)cc2)cc1` (configuration not stated), the inhibition is inactive: 11%.
The value for `O=[N+]([O-])c1cc([N+](=O)[O-])c(-n2nnc3ccccc32)c([N+](=O)[O-])c1` was inactive: 1.32%; that for `O=[N+]([O-])c1cc([N+](=O)[O-])c(-c2cnn(-c3ccccc3)c2)c([N+](=O)[O-])c1` was inactive: -69.4%.
On to `Cc1nc2ccc3ccccc3c2s1.O=[N+]([O-])c1cc([N+](=O)[O-])c(O)c([N+](=O)[O-])c1`, for which the inhibition was inactive: 18%.
Next, `COc1ccccc1OP(C)(=O)Nc1cccc(Br)c1` (configuration not stated): inactive: -2.34%; `Cc1cc(C)cc(OP(C)(=O)Nc2ccc(C)cc2C)c1` (configuration not stated): inactive: -12.1%.
In the case of `CCOC(=O)c1ccc(NP(C)(=O)Oc2cc(C)cc(C)c2)cc1` (configuration not stated), the inhibition is inactive: -1.87%.
Next, `CP(=O)(Nc1cccc(Br)c1)Oc1ccccc1` (configuration not stated): inactive: 10.7%; `Cc1cc(C)cc(OP(C)(=O)Nc2ccccn2)c1` (configuration not stated): inactive: 1.72%; `Cc1ccc(C)c(NP(C)(=O)Oc2ccccc2)c1` (configuration not stated): inactive: 2.7%.
For the compound `O=C(O)c1cccc(Nc2c([N+](=O)[O-])cc([N+](=O)[O-])cc2[N+](=O)[O-])c1`, the inhibition is inactive: 37.9%.
Next, `CC1=NCCc2c1[nH]c1ccccc21.O=[N+]([O-])c1cc([N+](=O)[O-])c(O)c([N+](=O)[O-])c1`: inactive: 19.6%; `COc1ccc(OP(C)(=O)Nc2ccc(SC(F)(F)F)cc2)cc1` (configuration not stated): inactive: -8.36%; `CCOC(=O)c1ccc(NP(C)(=O)Oc2ccc(F)cc2)cc1` (configuration not stated): inactive: -4.43%.
Consider `CCN(CC)CCCOC(=O)C(O)(c1ccccc1)C1CCCCC1` (configuration not stated), for which the inhibition is inactive: 12.5%.
Take `CCCCCOc1ccc(NP(C)(=O)Oc2ccc(Cl)cc2Cl)cc1` (configuration not stated): the inhibition is inactive: 2.07%.
The value for `O=[N+]([O-])c1cc([N+](=O)[O-])c(OC2CCCCC2O)c([N+](=O)[O-])c1` (configuration not stated) was inactive: -6.9%; that for `CP(=O)(Nc1ccccc1)Oc1ccc(F)cc1` (configuration not stated) was inactive: -9.24%.
The value for `CC(C)c1ccc(OP(C)(=O)Nc2ccc(SC(F)(F)F)cc2)cc1` (configuration not stated) was inactive: -11.4%.
As to `CP(=O)(Nc1ccccc1F)Oc1ccccc1` (configuration not stated), the inhibition is inactive: 26.5%.
Next, `O=C(OCCN1CCN(CCOCc2ccccc2)CC1)C(O)(c1ccccc1)c1ccccc1`: inactive: -12.9%; `O=C(OC1CN2CCC1CC2)c1ccc([N+](=O)[O-])cc1` (configuration not stated): inactive: -29.1%; `COc1ccc2c(c1O)-c1c(O)c(OC)cc3c1[C@H](C2)[N+](C)(C)CC3.O=[N+]([O-])c1cc([N+](=O)[O-])c([O-])c([N+](=O)[O-])c1[O-]`: inactive: -83.5%.
With `CP(=O)(Nc1ccc(SC(F)(F)F)cc1)Oc1ccc(F)cc1` (configuration not stated), the inhibition is inactive: 3.26%.
The value for `CCOP(C)(=S)SCC(=O)NC(C)(CC)C(=O)O` (configuration not stated) was inactive: 9.94%; that for `CP(=O)(Nc1ccc2c(c1)OCCO2)Oc1ccccc1` (configuration not stated) was inactive: 15.4%; that for `Cc1ccccc1NP(C)(=O)Nc1ccccc1C` was inactive: 8.67%.
The value for `COc1ccc(OP(C)(=O)Nc2cccc(Br)c2)cc1` (configuration not stated) was inactive: 0.374%.
In the case of `COc1ccc(NP(C)(=O)Oc2ccccc2OC)cc1` (configuration not stated), the inhibition was inactive: -4.29%.
For `CN(C)CCOC(=O)C(O)(c1ccccc1)C1CCCCC1` (configuration not stated), the inhibition was inactive: 4.97%.
For the compound `O=[N+]([O-])c1cc([N+](=O)[O-])c(NCC2CCS(=O)(=O)C2)c([N+](=O)[O-])c1` (configuration not stated), the inhibition was inactive: -9.27%.
Next, `Nc1ccc2c(ccc3cccnc32)n1.O=[N+]([O-])c1cc([N+](=O)[O-])c(O)c([N+](=O)[O-])c1`: inactive: 24.5%; `CP(=O)(OC12CC3CC(CC(C3)C1)C2)OC12CC3CC(CC(C3)C1)C2`: inactive: 11.9%.
Regarding `CCOC(=O)c1ccc(NP(C)(=O)Oc2ccc(Cl)cc2)cc1` (configuration not stated), the inhibition was inactive: 6.5%.
Next, `COc1ccc(OP(C)(=O)Nc2ccc(Br)cc2)cc1` (configuration not stated): inactive: 6.67%; `CCN(CC)CC(O)COC(=O)C(O)(c1ccccc1)C1CCCCC1` (configuration not stated): inactive: 10%; `CCc1ccc(OP(C)(=O)Nc2cccnc2)cc1` (configuration not stated): inactive: 4.86%.
The value for `CP(=O)(Oc1ccccc1)N1CCOC1=O` (configuration not stated) was inactive: -0.0702%.
Next, `O=C(OCCCN1CCCC1)C(O)(c1ccccc1)C1CCCCC1` (configuration not stated): inactive: 20.7%; `COc1ccccc1OP(C)(=O)Nc1c(C)n(C)n(-c2ccccc2)c1=O` (configuration not stated): inactive: 6.94%; `CP(=O)(Nc1ccc(Cl)cc1)Oc1ccc(F)cc1` (configuration not stated): inactive: -12%.
In the case of `CC(C)(C)c1ccc(OP(C)(=O)O)cc1`, the inhibition was inactive: -20.9%.
For `COc1ccccc1OP(C)(=O)Nc1ccccc1Br` (configuration not stated), the inhibition is inactive: 2.66%.
Next, `CN(C)C(=O)c1c([N+](=O)[O-])cc([N+](=O)[O-])cc1[N+](=O)[O-]`: inactive: -33.9%; `COc1ccccc1OP(C)(=O)Nc1ccc(Br)cc1` (configuration not stated): inactive: -0.587%; `CN(C)CCOC(=O)C(O)(c1ccccc1)C1CCCC1` (configuration not stated): inactive: 2.47%.
The value for `COc1ccc(OP(C)(=O)Nc2ccccn2)cc1` (configuration not stated) was inactive: -19.2%; that for `O=[N+]([O-])c1cc([N+](=O)[O-])c(Nc2ccccn2)c([N+](=O)[O-])c1` was inactive: 5.77%; that for `Cc1c(NP(C)(=O)Oc2ccc(C(C)C)cc2)c(=O)n(-c2ccccc2)n1C` (configuration not stated) was inactive: 2.72%.
Turning to `CCc1ccc(OP(C)(=O)O)cc1`, the inhibition was inactive: -0.782%.
The value for `COc1ccccc1OP(C)(=O)Nc1ccc(C)cc1C` (configuration not stated) was inactive: -4.57%; that for `CP(=O)(Nc1ccccn1)Oc1ccccc1` (configuration not stated) was inactive: 12.6%.
The value for `Cc1cc(C)cc(OP(C)(=O)Nc2cccc(C(F)(F)F)c2)c1` (configuration not stated) was inactive: -1.82%; that for `COc1ccc(OP(C)(=O)Nc2ccccc2Br)cc1` (configuration not stated) was inactive: -0.38%; that for `COc1ccccc1OP(C)(=O)Nc1ccc(C)c(C)c1` (configuration not stated) was inactive: 24%.
The value for `Cc1nc2ccc3ccccc3c2o1.O=[N+]([O-])c1cc([N+](=O)[O-])c(O)c([N+](=O)[O-])c1` was inactive: -0.701%; that for `CP(=O)(OCCOc1ccccc1)OCCOc1ccccc1` was inactive: 29.1%; that for `CP(=O)(Nc1ccc(Cl)cc1Cl)Oc1ccccc1` (configuration not stated) was inactive: 0.158%.

Usually inhibition stands for the drop in the measured response relative to a control, in per cent.
